Reference: ChEMBL document CHEMBL5500368, “Discovery of novel diaryl substituted isoquinolin-1(2H)-one derivatives as hypoxia-inducible factor-1 signaling inhibitors for the treatment of rheumatoid arthritis” (Eur J Med Chem, 2024)

Experiment: Cytotoxicity against human MH7A cells

Compound: O=c1c2ccc(-c3ccoc3)cc2ccn1CCc1ccccc1
- CC50: > 50 µM
